Measurements as given in patent US4352803A, “Novel naphthyridine derivatives, intermediates thereof, processes for preparation thereof, and use thereof” (Dainippon Pharmaceutical Co., Ltd., priority 1978, dated 1982).
Structures can show the parent of a compound that is named as a salt.

Tests used:
[1] = tested on: Gram-positive and Gram-negative bacteria; experiment: in vivo therapeutic efficacy against systemic infections in mice (overall); set-up: species or system mice (ddY); settings: particularly Pseudomonas aeruginosa
in vivo = settings: mouse, po
Experimental: The number of dead mice was counted after 7 days, and the value of median lethal dose (LD50, mg/kg) was calculated in accordance with the Behrens-Kaerber method.

## CCn1cc(C(=O)O)c(=O)c2cnc(N3CCNCC3)nc21 [F, 8-Ethyl-5,8-dihydro-5-oxo-2-(1-piperazinyl)pyrido[2,3-d] pyrimidine-6-carboxylic acid]
[1]
  therapeutic effects in vivo against Gram-negative bacteria, relative to compounds 1, 1' and 2: clearly inferior
In vivo
  LD50 at 168 h: > 5000 mg/kg

## CC1(C)S[C@@H]2[C@H](NC(=O)C(C(=O)Oc3ccc4c(c3)CCC4)c3ccccc3)C(=O)N2[C@H]1C(=O)O (stereo partly drawn) [G, α-(5-Indanyloxycarbonyl)benzylpenicillin sodium salt]
[1]
  therapeutic effects in vivo against Gram-negative bacteria, relative to compounds 1, 1' and 2: clearly inferior
In vivo
  LD50 at 168 h: > 4000 mg/kg
